# From PubChem
# The list is not random: actives were taken first. Their share in the collection is about 4.2%.
# HDAC3 inhib: inhibitors of human histone deacetylase 3; 0.15% of 320,000 active; recombinant HDAC3, fluorogenic peptide/trypsin coupled, fluorescence; inhibition, % at 8.3 µM; O15379; AID 2718; in the data active means inhibition above about 26%, passing the limit was not always enough
# NALP1 inh: NALP1 inhibition; inhibition, % at 10 µM; 0.61% of 280,000 active; AID 2071; S. cerevisiae NALP1/ASC/caspase-1 growth, X-gal OD620, 72 h; in the data active means inhibition mostly above about 24%, no sharp cut-off; inactive means mostly below about 32%
# ALR H2O2 inh: human ALR oxidase inhibition via reduced H2O2. P55789. purified ALR, DTT oxidation, H2O2 HRP-luminol luminescence. inhibition, % (no concentration beside the values). 290,000 tested, 3.8% active. AID 485317;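 active = mean and each replicate at 75% or more; inconclusive = only one of the two met; inactive = neither met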;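 also: stock transfer was 7.5 nL into about 7.5 µL; 0% = neutral wells and 100% = wells with inactivated enzyme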
# UUG fidelity: alters start codon recognition fidelity in yeast. S. cerevisiae UUG-firefly luciferase reporter, luminescence/redox ratio. activity score, % at 18.7 µM. 0.13% of 350,000 active. AID 602363;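 active = replicate mean at a twofold rise or more, about +100% in these data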;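 also: firefly luciferase made from a UUG start codon reports start codon fidelity; reporter light over untreated wells divided by growth signal over untreated wells; some hits fall short of that in this replicate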
# MC4R barr agon: activates human MC4R beta-arrestin recruitment. P32245. U2OS MC4R beta-arrestin complementation, luminescence; percent of melanotan II response, DMSO zero. activation, % at 8.9 µM. 0.98% of 360,000 active. AID 540308;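 active means activation above a per-plate cutoff, the mean activation of sample wells on that plate plus 3 SD, cut at about 8% in these data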
# MC4R antag cAMP: antagonists of human melanocortin 4 receptor (MC4R) | AID 540295 | P32245 | MC4R-expressing cells, MTII-stimulated cAMP, LANCE TR-FRET | 0.48% of 360,000 active | inhibition, % at 6.5 µM;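 active means inhibition above its plate's cutoff, the mean of tested wells on that plate plus 3 SD, cut at about 29% in these data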
#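 Test system: U2OS cells stably expressing human melanocortin 4 receptor (MC4R); also added: Melanotan II challenge; compound: 6.5 µM single dose; timing: 30-min compound preincubation, 1-h Melanotan II challenge, 1-h detection, room temperature; signal: Eu-cAMP/anti-cAMP TR-FRET, emission 671 nm; repeats: one well per compound, no replicates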
# A number is an active result; - = inactive; . = not tested or not shown.
SMILES,HDAC3 inhib,NALP1 inh,ALR H2O2 inh,UUG fidelity,MC4R barr agon,MC4R antag cAMP
Cc1ccc(-c2nc(CS(=O)CC(=O)N3CCN(c4ccc(F)cc4)CC3)c(C)o2)cc1 (stereo not given),-,-,99,-,-,-
CCCCOC(=O)c1ccc(OC(=O)N2CCOCC2)cc1,-,-,-,-,-,-
O=C(OCCCN1CCOCC1)c1ccc(O)c(O)c1,-,-,99,.,-,-
COc1cc(C(=O)OCCN2CCOCC2)ccc1O,-,-,96,-,-,-
CC(C)COc1ccc(C(=O)OCCN2CCOCC2)c(O)c1,-,-,-,-,-,-
Cc1ccc(S(=O)(=O)Nc2ccc3c(c2)C(=O)N([C@@H](C)CO)C[C@@H](C)[C@H](CN(C)Cc2ccncc2)OCCCC[C@@H](C)O3)cc1,.,.,.,-,.,.
COc1ccc(-c2cnc3c(c2)C(=O)N([C@@H](C)CO)C[C@H](C)[C@@H](CN(C)C(=O)CN(C)C)O3)cc1,.,.,.,-,.,.
Cc1nn(-c2ccccc2)c(N2CCCC2)c1/C=N/NC(=S)Nc1ccc(F)cc1,-,.,.,-,-,-
Cc1ccc(NC(=S)N/N=C/c2c(C)nn(-c3ccccc3)c2N2CCCC2)cc1,-,-,-,.,8.6,-
CC(C)=N/N=c1\scc(C)n1Cc1ccco1,-,-,-,.,-,-
Cc1cs/c(=N\N=C2CCCCC2)n1Cc1ccco1,-,-,96,.,-,-
Cc1cs/c(=N\N=C\c2ccccc2)n1Cc1ccco1,-,-,84,-,-,-
C[C@@H]1CN([C@@H](C)CO)C(=O)c2cc(-c3cncnc3)cnc2O[C@H]1CN(C)C(=O)Nc1ccc2c(c1)OCO2,.,.,.,-,.,.
O=C(C[C@H]1C[C@H]2c3cc(NC(=O)C4CCC4)ccc3O[C@H]2[C@H](CO)O1)NCCN1CCCCC1,.,.,.,-,.,.
O=C(NCC[C@H]1CC[C@H](NS(=O)(=O)Cc2ccccc2)[C@H](CO)O1)C1CC1,.,.,.,-,.,.
O=C(CSC1=NCCS1)Nc1cccc(F)c1,-,-,99,-,-,-
O=C(CSC1=NCCS1)Nc1ccc2ccccc2c1,-,-,99,.,-,-
C[C@@H]1CN([C@H](C)CO)S(=O)(=O)c2ccc(C#C[C@@H](C)O)cc2O[C@@H]1CN(C)C(=O)C1CC1,.,.,.,-,.,.
COc1ccc(C=O)cc1CSc1ccccn1,-,-,97,-,-,-
Cc1csc(NC(=O)CSc2nc3ccccc3c(=O)[nH]2)n1,-,-,99,-,-,-
CC(C)(C)c1csc(NC(=O)CSc2nc3ccccc3c(=O)[nH]2)n1,-,-,94,.,-,-
Cc1[nH]c2ccccc2c1-c1csc(NC(=O)CSCCO)n1,-,-,99,.,-,-
Cc1csc(NC(=O)CSCC(=O)Nc2ccccc2)n1,-,-,92,-,-,-
Cc1ccccc1S(=O)(=O)NCC[C@@H]1CC[C@@H](NC(=O)C2CCCCC2)[C@@H](CO)O1,.,.,.,-,.,.
CCCN(C)C[C@H]1Oc2ncc(C#CC3CC3)cc2C(=O)N([C@H](C)CO)C[C@@H]1C,.,.,.,-,.,.
SMILES,HDAC3 inhib,NALP1 inh,ALR H2O2 inh,UUG fidelity,MC4R barr agon,MC4R antag cAMP
O=C(NCc1nc(-c2ccccc2)no1)c1ccc2c(c1)OCO2,-,-,-,-,-,-
O=C(Nc1ccc(Cl)c(Cl)c1)c1ccc2c(c1)OCO2,-,-,-,-,9.3,-
Cc1ccccc1OCc1nc(-c2ccc(NC(=O)c3ccc4c(c3)OCO4)cc2)no1,-,-,.,-,22,-
O=C(Nc1ncccc1O)c1ccc2c(c1)OCO2,86,.,-,-,-,-
O=C(Nc1ncccc1O)c1ccc2c(c1)OCCO2,.,.,-,.,-,-
CCS(=O)(=O)N[C@H]1C=C[C@@H](CC(=O)NCc2ccc(Cl)cc2)O[C@H]1CO,.,.,.,-,.,.
C[C@@H]1CCCCO[C@@H](CN(C)S(=O)(=O)c2ccc(F)cc2)[C@@H](C)CN([C@H](C)CO)C(=O)c2cc(NC(=O)CCCN(C)C)ccc2O1,.,.,.,-,.,.
COCc1cc(C)nc(OCC(=O)N/N=C/c2ccc(OC)c(OC)c2)c1C#N,-,-,-,.,-,-
COCc1cc(C)nc(OCC(=O)N/N=C/c2ccc(O)cc2)c1C#N,-,-,99,-,-,-
C[C@@H]1CN([C@H](C)CO)C(=O)c2cc(NC(=O)c3ccncc3)ccc2O[C@@H](C)CCCCO[C@H]1CN(C)Cc1ccc(C(F)(F)F)cc1,.,.,.,-,.,.
